## Ab-14 light chain CDR variants: yeast mating affinities

Data: MIT Lincoln Laboratory AlphaSeq set, Engelhart et al. 2022, doi:10.1038/s41597-022-01779-4, as distributed in FLAb.

Target peptide (SARS-CoV-2 spike, HR2 region): PDVDLGDISGINAS

Parent scFv Ab-14: VH joined to VL by the linker GGGGSGGGGSGGGGS. Changes lie in the light chain CDRs alone.
VH: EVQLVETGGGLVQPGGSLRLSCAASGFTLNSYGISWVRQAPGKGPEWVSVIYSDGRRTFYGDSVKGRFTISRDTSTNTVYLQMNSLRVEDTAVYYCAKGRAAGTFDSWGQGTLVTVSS
VL: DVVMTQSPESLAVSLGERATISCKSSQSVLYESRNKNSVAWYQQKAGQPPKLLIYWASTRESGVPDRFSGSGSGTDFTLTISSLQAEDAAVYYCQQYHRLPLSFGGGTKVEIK

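AAYL50 was designed without a model: most single CDR substitutions and a random sample of double and triple ones. The assay is AlphaSeq: two haploid yeast populations carry antibody and antigen on their surface. Mating (16 h, 30 °C) was followed by selection of diploids and sequencing of their barcodes. A regression on co-assayed BCL2-family reference pairs converts the normalised counts of each replicate to an apparent Kd. The assay was run in three technical replicates.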

The parent's light chain CDRs are KSSQSVLYESRNKNSVA, WASTRES, QQYHRLPLS; each variant's own CDRs replace them letter for letter.
Every variant below is changed at K24 of the VL (sequential numbering).
Values are apparent Kd, the geometric mean of the replicates that gave a signal; lower means stronger binding.
A pair that was not seen in any replicate is written "nd"; this usually means weak binding, but a binder can also be missed.
Empty control strains, which show no peptide, gave a signal in 18% of pairings with library AAYL50; the median was 15 µM and 95% of these signals were weaker than 970 nM. No background was subtracted. Also given: how often the same scFv was detected with the empty control strains.

- QSSLSVFYESRNKNSVA / WASTRES / QQYHRLPLS -> 18 nM (3 of 3 replicates; controls 1 of 9)
- FSSQSVLYESRNKNSVA / WASTREG / QQYHRMPLS -> 5.8 µM (2 of 3 replicates; controls 1 of 9)
- FSSQSVLYRSENKNSVA / WASTRES / QQYHRLPLS -> 46 nM (3 of 3 replicates; controls 3 of 9)
- ISSQSVLYGSRNKNMVA / WASTRES / QQYHRLPLS -> 23 µM (1 of 3 replicates; controls 3 of 9)
- WSSHSVLYESRNKNSVA / WASTRES / QQYHRFPLS -> 680 nM (3 of 3 replicates; controls 1 of 9)
- TSSQSVAYESRNKNSVA / WASTRES / QQYHRLPLS -> 150 nM (3 of 3 replicates; controls 2 of 9)
- TSSQSVLYESRNKNSMA / WASTRES / QQYHHLPLS -> 1.5 µM (3 of 3 replicates; controls 5 of 9)
- MSSQSVLYESRNKNSVA / WASTRES / QWYPRLPLS -> nd (0 of 3 replicates; controls 1 of 9)
- ASSQSVLYENRNKNSVA / WASTRES / QQYHRYPLS -> 100 nM (3 of 3 replicates; controls 0 of 9)
- MSSQSVLYESRNKNSVA / WASTRES / SQYHRLGLS -> 6.6 µM (2 of 3 replicates; controls 0 of 9)
- ESSQSVLYESRNKNSVF / WASTRES / QQYHRLLLS -> nd (0 of 3 replicates; controls 0 of 9)
- GFSQSVLYESRNKNSVA / WASTRES / QQYARLPLS -> 19 nM (3 of 3 replicates; controls 5 of 9)
- VSEQSVLYESRNKNSVA / WASTRES / QQTHRLPLS -> nd (0 of 3 replicates; controls 0 of 9)
- DSSQSVLYESRNKNSVA / WASTRES / QQYHILPLS -> 2.1 µM (1 of 3 replicates; controls 0 of 9)
- NSSQSVLYDSRNKNSVA / WASTRDS / QQYHRLPLS -> 56 nM (3 of 3 replicates; controls 5 of 9)
- VSSQSVLYESRDKNSVA / WASTIES / QQYHRLPLS -> nd (0 of 3 replicates; controls 0 of 9)
- ESSASVLYESRNKNSVA / WASTRES / QQYHRLPLY -> 37 nM (3 of 3 replicates; controls 2 of 9)
- RSSQSVLYESRNKNSVA / LASTRES / QQYHRLPLH -> 530 nM (3 of 3 replicates; controls 1 of 9)
- ISSQSVLYESRNKNSVA / WWNTRES / QQYHRLPLS -> 610 nM (1 of 3 replicates; controls 1 of 9)
- CSSQSVLYESRIFNSVA / WASTRES / QQYHRLPLS -> nd (0 of 3 replicates; controls 0 of 9)
- ESPHSVLYESRNKNSVA / WASTRES / QQYHRLPLS -> 390 nM (3 of 3 replicates; controls 7 of 9)
- YRSQSVRYESRNKNSVA / WASTRES / QQYHRLPLS -> 40 µM (1 of 3 replicates; controls 2 of 9)
- ISSQSVWYESRNKNSVA / WASTRES / QQYHRLPSS -> 720 µM (1 of 3 replicates; controls 4 of 9)
- PSSQSVLYESRSKNSVA / WASTRES / QQYHRIPLS -> 13 µM (2 of 3 replicates; controls 3 of 9)
- HSSQSVLYESRNKNSVA / WASIRES / QQYHRLPSS -> nd (0 of 3 replicates; controls 0 of 9)
- QSSNSVLYESRNKNSVA / WASTRES / QIYHRLPLS -> nd (0 of 3 replicates; controls 1 of 9)
- MSRQSVLYESRNKNSVA / WASTRES / QQYHRLPLC -> nd (0 of 3 replicates; controls 1 of 9)
- MSSQSVLYESRNKNSWA / WASTREF / QQYHRLPLS -> nd (0 of 3 replicates; controls 0 of 9)
- SSSQSVLYESRNKNSVA / WASTRES / QPYHRSPLS -> 140 µM (2 of 3 replicates; controls 1 of 9)
- FSSQSVAYESRNKNKVA / WASTRES / QQYHRLPLS -> 1.0 µM (2 of 3 replicates; controls 3 of 9)
- NSSQSVLYESRNKNSRA / WASTRES / QQYHRLPLS -> 210 µM (3 of 3 replicates; controls 6 of 9)
- QSSQSVLYESRNKNSVA / WASTRES / QQHHRLPLS -> 140 nM (3 of 3 replicates; controls 0 of 9)
- QSSQSVLYESRNCNSVA / WASTRES / QQYHELPLS -> 4.9 µM (3 of 3 replicates; controls 1 of 9)
- FSSQSVLYEWRNKNSVA / WASTRES / QQYHRLPLS -> 340 nM (3 of 3 replicates; controls 4 of 9)
- ISSQSVLYESRNKNSVN / WASTREL / QQYHRLPLS -> 230 µM (1 of 3 replicates; controls 1 of 9)
- RSSQSVLYESRNKNSVA / WMSTRES / QQYHRLPLP -> nd (0 of 3 replicates; controls 1 of 9)
- HWSQSVLYESYNKNSVA / WASTRES / QQYHRLPLS -> 6.5 nM (3 of 3 replicates; controls 4 of 9)
- CSSQSVWYESRNKNSVA / WASTRES / QQYHRLPLS -> 4.6 nM (3 of 3 replicates; controls 1 of 9)
- SSSQSVSYASRNKNSVA / WASTRES / QQYHRLPLS -> 13 nM (3 of 3 replicates; controls 2 of 9)

Repeated from above, the 4 best binders with a signal in all replicates:

CDR-L1,CDR-L2,CDR-L3,apparent Kd,detected,signal with controls
CSSQSVWYESRNKNSVA,WASTRES,QQYHRLPLS,4.6 nM,3 of 3,1 of 9
HWSQSVLYESYNKNSVA,WASTRES,QQYHRLPLS,6.5 nM,3 of 3,4 of 9
SSSQSVSYASRNKNSVA,WASTRES,QQYHRLPLS,13 nM,3 of 3,2 of 9
QSSLSVFYESRNKNSVA,WASTRES,QQYHRLPLS,18 nM,3 of 3,1 of 9

For reference, the parent read 4.4 nM as the reference entry and 48 nM as a member of this library.